Tested on: surface expression of MICA
Conditions: tumor lines exposed to DTNB or PAO at titered non-toxic concentrations

Compound: O=[As]c1ccccc1 (stereo not shown)
- surface expression of MICA: without affecting surface expression of MICA

Reference: US7959916B2, “Negative immunomodulation of immune responses by ERp5” (Fred Hutchinson Cancer Research Center, priority 2007, dated 2011)
